The source of these data is PubChem BioAssay AID2016 (NMMLSC, 2009).

Only a part is listed here, and it is no random draw. The source made the active and inactive calls.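 How the source made its calls: active means GFP response versus DMSO above a set limit, roughly screen mean plus 3 SD (cut at about 180% in these data); inconclusive means fewer than 70 cells counted for a yeast strain; inactive means the rest.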

A short description of this assay: modulators of MEP2-GFP levels in yeast, primary screen, S. cerevisiae, multiplex flow cytometry, MLPCN library (AID 2016).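 Further: median GFP fluorescence of the barcode-gated MEP2-GFP cells per well.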 The following applies: S. cerevisiae MEP2-GFP strain, 3 h, at 10 µM, active compounds read high, 100% = DMSO control level.
Consider `CN(C)c1cccc(C(=O)NCC2(N3CCCCC3)CCCCC2)c1`, for which the GFP response vs DMSO is inactive: 106%. In the case of `COc1ccc(CN(CCCl)CCCl)cc1Cl` it was inactive: 95.5%.

As to `CC(C)c1ccc(NC2CCN(C(=O)OC(C)(C)C)CC2)cc1`, the GFP response vs DMSO is inactive: 93.1%. In the case of `O=C(NCC1(N2CCOCC2)CCCCC1)c1cc(F)c(F)cc1Cl` it was inactive: 99.1%; in that of `COc1cc(OC)c(C(=O)NCC2(N(C)C)CCCCC2)cc1OC`, inactive: 95%; in that of `CN1CCC(Nc2cccc(F)c2)CC1`, inactive: 110%. In the case of `O=C(NCC1(N2CCCCC2)CCCCC1)c1cncc(Br)c1`, the GFP response vs DMSO was inactive: 105%. For the molecule `CCCOc1ccc(C(=O)NCC2(N(C)C)CCCCC2)cc1OC`, the GFP response vs DMSO was inactive: 89.4%. In the case of `O=C(NCC1(N2CCCCC2)CCCCC1)c1ccc(OC(F)F)cc1` it was inactive: 103%. In the case of `O=C(NCC1(N2CCCCC2)CCCCC1)c1cccc([N+](=O)[O-])c1` it was inactive: 107%; in that of `N#CC1(Nc2ccccc2)CCN(CCc2ccccc2)CC1`, inactive: 116%; in that of `CCN1CCC(Nc2ccc(Cl)cc2)CC1`, inactive: 101%.

On to `O=C(NCC1(N2CCCCC2)CCCCC1)c1cccc(C(F)(F)F)c1`, for which the GFP response vs DMSO is inactive: 104%. Next, `COc1ccc(NC2CCN(C(=O)OC(C)(C)C)CC2)cc1`: inactive: 96%; `CN1CCN(CCOC(=O)C(O)(c2ccccc2)c2ccccc2)CC1`: inactive: 83.2%. In the case of `O=C(NCC1(N2CCOCC2)CCCCC1)c1cc(=O)[nH]c2ccccc12` it was inactive: 94.2%; in that of `COc1cc(C(=O)NCC2(N3CCCCC3)CCCCC2)ccc1OC(F)F`, inactive: 103%; in that of `CCOc1ccc(C)cc1CN(CCCl)CCCl`, inactive: 94.1%. As to `CCOC(=O)N1CCC(Nc2ccc(F)cc2)CC1`, the GFP response vs DMSO was inactive: 105%. For the molecule `COc1ccc(NC2CCN(CCc3ccccc3)CC2)c(OC)c1`, the GFP response vs DMSO is inactive: 109%. Next, `O=C(NCC1(N2CCCCC2)CCCCC1)c1ccc(F)cc1`: inactive: 102%; `Cc1ccc(OCC(C)C)c(CN(CCCl)CCCl)c1`: inactive: 93.7%; `CCOC(=O)N1CCC(Nc2cccc(C)c2)CC1`: inactive: 104%. Next, `COc1cc(C(=O)NCC2(N(C)C)CCCCC2)ccc1OC(F)F`: inactive: 101%; `O=C(NCC1(N2CCCCC2)CCCCC1)c1cccs1`: inactive: 104%. In the case of `O=C(NCC1(N2CCCCC2)CCCCC1)c1ccc(=O)[nH]c1`, the GFP response vs DMSO was inactive: 157%. Next, `COc1ccc(C(=O)NCC2(N3CCCCC3)CCCCC2)c(OC)c1OC`: inactive: 90.6%.

As for `CC(C)(C)OC(=O)N1CCC(N(C(=O)c2ccccc2)c2ccc(F)cc2)CC1`, the GFP response vs DMSO was inactive: 167%. Next, `COc1ccc(C(=O)NCC2(N3CCCCC3)CCCCC2)cc1`: inactive: 108%.

As for `CSc1ccccc1C(=O)NCC1(N2CCCCC2)CCCCC1`, the GFP response vs DMSO was inactive: 110%.

On to `O=C(NCC1(N2CCOCC2)CCCCC1)c1cc2ccccc2o1`, for which the GFP response vs DMSO was inactive: 97%. `Cc1cc(C)cc(N(C(=O)c2ccccc2)C2CCN(C(=O)OC(C)(C)C)CC2)c1`: the GFP response vs DMSO was inactive: 98.5%. As to `O=C(NCC1(N2CCCCC2)CCCCC1)c1ccc(Cl)nc1`, the GFP response vs DMSO was inactive: 94.8%. As to `CCOC(=O)N1CCC(Nc2ccc(OC)cc2)CC1`, the GFP response vs DMSO was inactive: 103%. In the case of `COc1ccc(Cl)cc1C(=O)NCC1(N2CCOCC2)CCCCC1` it was inactive: 102%. Next, `O=C(NCC1(N2CCCCC2)CCCCC1)c1ccc(Cl)s1`: inactive: 94.1%. In the case of `N#CC1(Nc2ccccc2)CCN(Cc2ccccc2)CC1` it was inactive: 104%; in that of `O=C(OC1CN2CCC1CC2)C1c2ccccc2Oc2ccccc21` (stereo unspecified), inactive: 104%. Take `CN1CCC(Nc2ccc(F)c(Cl)c2)CC1`: the GFP response vs DMSO is inactive: 105%. On to `CCOc1ncccc1C(=O)NCC1(N2CCOCC2)CCCCC1`, for which the GFP response vs DMSO is inactive: 108%. Next, `CCCOc1ccc(C(=O)NCC2(N(C)C)CCCCC2)cc1`: inactive: 105%; `O=C(O)C1(Nc2ccccc2)CCN(Cc2ccccc2)CC1`: inactive: 104%; `CC(C)(C)OC(=O)N1CCC(Nc2ccccc2)CC1`: inactive: 91.3%. In the case of `CCC(CO)(C(=O)OC1CN2CCC1CC2)c1ccccc1` (stereo unspecified) it was inactive: 95.7%. In the case of `COc1cccc(C(=O)N(c2cc(C)cc(C)c2)C2CCN(C(=O)OC(C)(C)C)CC2)c1` it was inactive: 104%; in that of `COc1cc(OC)cc(C(=O)NCC2(N3CCOCC3)CCCCC2)c1`, inactive: 94.8%.

For `CCCOc1ccc(C)cc1CN(CCCl)CCCl`, the GFP response vs DMSO is inactive: 97.6%. In the case of `CN1CCC(Nc2ccc(Cl)cc2)CC1` it was inactive: 102%. In the case of `COc1cc(OC)cc(C(=O)NCC2(N3CCCCC3)CCCCC2)c1` it was inactive: 105%. In the case of `Fc1ccccc1NC1CCN(Cc2ccccc2)CC1` it was inactive: 102%. For the molecule `Cc1ccc(C(=O)NCC2(N3CCCCC3)CCCCC2)o1`, the GFP response vs DMSO is inactive: 128%. In the case of `CCN1CCC(Nc2cccc(F)c2)CC1` it was inactive: 100%. Next, `CN(C)c1ccc(C(=O)NCC2(N3CCCCC3)CCCCC2)cc1`: inactive: 97.1%; `O=C(NCC1(N2CCCCC2)CCCCC1)c1ccco1`: inactive: 98%. Consider `CC(C)(C)OC(=O)N1CCC(N(C(=O)c2ccccc2)c2ccc(Cl)cc2)CC1`, for which the GFP response vs DMSO was inactive: 105%. With `N#Cc1ccc(C(=O)NCC2(N3CCCCC3)CCCCC2)cc1`, the GFP response vs DMSO was inactive: 110%.

With `CCCN1CCC(Nc2cc(OC)cc(OC)c2)CC1`, the GFP response vs DMSO was inactive: 110%. In the case of `c1ccc(CN2CCC(Nc3ccccc3)CC2)cc1` it was inactive: 100%; in that of `CN(C)C1(CNC(=O)c2cccc(C#N)c2)CCCCC1`, inactive: 104%. Consider `O=C(NCC1(N2CCOCC2)CCCCC1)c1cc(Br)ccc1Cl`, for which the GFP response vs DMSO was inactive: 98%.

Take `COc1cc(C(=O)NCC2(N3CCOCC3)CCCCC2)cc(OC)c1C`: the GFP response vs DMSO was inactive: 104%. Regarding `COc1ccc(C(=O)NCC2(N3CCOCC3)CCCCC2)cc1OC`, the GFP response vs DMSO was inactive: 90.9%.

As to `N/C(=N\O)c1c(N)no[n+]1[O-]`, the GFP response vs DMSO was inactive: 99%. Next, `CCOC(=O)N1CCC(Nc2ccc(C)cc2)CC1`: inactive: 83.6%; `CCc1cc(C(=O)NCC2(N3CCCCC3)CCCCC2)sc1C`: inactive: 93.1%; `O=C(OC1CN2CCC1CC2)C1c2ccccc2C=Cc2ccccc21` (stereo unspecified): inactive: 101%.
